Data reported in patent US20090104257A1 (priority 2007, published 2009).
“And” between values parts separate entries of the source, which are not always exact repeats. Equal values may be shown once.

Assay: Concentration of vancomycin in the lungs of mice after inhalation therapy (Example 8)
Settings: 6 mg/kg inhaled, 4 days after inhalation therapy; listed as Soluble Vancomycin
Text: There were 5 groups and each group had 12 mice. […] Mice in group 5 received sterile normal saline (0.9% NaCl) by inhalation.

CN[C@H](CC(C)C)C(=O)N[C@H]1C(=O)N[C@@H](CC(N)=O)C(=O)N[C@H]2C(=O)N[C@H]3C(=O)N[C@H](C(=O)N[C@H](C(=O)O)c4cc(O)cc(O)c4-c4cc3ccc4O)[C@H](O)c3ccc(c(Cl)c3)Oc3cc2cc(c3O[C@@H]2O[C@H](CO)[C@@H](O)[C@H](O)[C@H]2O[C@H]2C[C@](C)(N)[C@H](O)[C@H](C)O2)Oc2ccc(cc2Cl)[C@H]1O [Vancomycin, vancomycin]
Vancomycin (μg/g), individual mice: 54.9 µg/g
Vancomycin (μg/lung), individual mice: 10.3 μg/lung and 11.2 μg/lung
